These results are taken from article PMC12670387, “A Fragment-Based Electrophile-First Approach to Target Histidine with Aryl-Fluorosulfates: Application to hMcl‑1” (2025).

By UniProt entry, the sequences of proteins in these tests, tags left out. Residues count along the entry.
UniProt Q07820, 172-323 limits assumed: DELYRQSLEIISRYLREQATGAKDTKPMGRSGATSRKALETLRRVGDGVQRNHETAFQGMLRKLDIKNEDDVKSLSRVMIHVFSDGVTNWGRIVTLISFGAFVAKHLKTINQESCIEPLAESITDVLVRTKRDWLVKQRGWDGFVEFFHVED

As usually defined, the IC50 is the concentration at which inhibition is half-maximal.

In this assay the target is hMcl-1 (Homo sapiens, UniProt Q07820). The experiment in a line: DELFIA displacement of biotinylated BH3 peptide ([…] h); intact MS […] covalent adduct; thermal shift ~[…] °C.

As for `O=C(Nc1cncc(OS(=O)(=O)F)c1)C1CCc2ccc(Cl)cc21` (stereo not shown), the 50% inhibitory concentration (IC50) was determined as 2.5 µM.
